Test results: patent publication US7767666B2, “Butyl and butynyl benzyl amine compounds” (Janssen Pharmaceutica NV, priority 2006, dated 2010)

Protein sequences, listed by entry. Tags and fused reporters are not part of them. Lines headed by an entry give the natural chain unless they say otherwise; changes in a name come on top.
UniProt Q9Y5N1: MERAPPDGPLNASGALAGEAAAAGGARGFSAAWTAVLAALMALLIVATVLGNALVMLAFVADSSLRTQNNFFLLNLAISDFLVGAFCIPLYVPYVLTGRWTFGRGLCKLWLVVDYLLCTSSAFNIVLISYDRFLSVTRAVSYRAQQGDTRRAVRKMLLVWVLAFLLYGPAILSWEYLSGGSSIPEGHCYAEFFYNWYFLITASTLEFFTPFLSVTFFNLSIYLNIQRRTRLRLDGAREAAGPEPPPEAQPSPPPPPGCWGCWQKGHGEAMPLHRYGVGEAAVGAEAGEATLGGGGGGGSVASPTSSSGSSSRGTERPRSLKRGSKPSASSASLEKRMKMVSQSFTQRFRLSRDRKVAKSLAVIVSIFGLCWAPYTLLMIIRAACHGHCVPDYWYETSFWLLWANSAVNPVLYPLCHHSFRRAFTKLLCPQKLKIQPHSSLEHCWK

Columns and labels:
human H3 receptor [1] = target: T1, human H3 receptor (Homo sapiens, UniProt Q9Y5N1); assay: Cyclic AMP accumulation (β-galactosidase reporter); assay type: cell-based; conditions: SK-N-MC cells expressing human H3 receptor and reporter; histamine agonist, forskolin 5 μM; Schild regression of pEC50 values
T1 construct: expressed in transfected cells
Experimental: Sublines of SK—N-MC cells were created that expressed a reporter construct and the human H3 receptor. The reporter gene (β-galactosidase) is under the control of multiple cyclic AMP responsive elements. In 96-well plates, histamine was added directly to the cell media followed 5 min later by an addition of forskolin (5 μM final concentration). When appropriate, antagonists were added 10 min prior to agonist addition. After a 6-h incubation at 37° C., the media was aspirated and the cells washed with 200 μL of phosphate-buffered saline followed by a second aspiration. Cells were lysed with 25 μL 0.1× assay buffer (10 mM Na-phosphate, pH 8, 0.2 mM MgSO4, 0.01 mM MnCl2) and incubated at rt for 10 min. Cells were then incubated for 10 min with 100 μL of 1× assay buffer containing 0.5% Triton and 40 mM β-mercaptoethanol. Color was developed using 25 μL of 1 mg/mL substrate solution (chlorophenolred β-D galactopyranoside; Roche Molecular Biochemicals, Indianapolis, Ind.).

human H3 receptor [2] = target: T1, human H3 receptor; assay: H3 receptor binding; conditions: cloned human H3 receptor stably expressed in SK-N-MC cells

CNCc1cc(C#CCCN2CCOCC2)ccc1Oc1ccccc1 [Example 6, Methyl-[5-(4-morpholin-4-yl-but-1-ynyl)-2-phenoxy-benzyl]-amine]
pA2 (human H3 receptor [1]): 8.14
Ki (human H3 receptor [2]): 5.7 nM
